# Measured values as given in PubChem BioAssay AID588674 (Broad Institute, 2011).
# The list shows a part of the results, in another mix than the full data. Activity calls are given as the source filed them.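 The calls were made as follows: active = mean inhibition of at least 75% with every replicate also reaching 75%; inconclusive = mean inhibition at least 75% but some replicate below; inactive = mean inhibition below 75%.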
# Test: reduction of Shn3 3'UTR firefly luciferase signal, primary screen, Schnurri-3 inhibitor project, cell-based, Clone20 osteoblasts, set 2 (AID 588674);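 also: 0% = median of neutral control wells and 100% = pilot-screen positive control compound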
# Conditions: Clone20 osteoblast Shn3 3'UTR firefly luciferase, 24 h; at 12.5 µM; hits give high values
row,SMILES,inhibition
1,CCC(=O)N(c1ccccc1)C1(COC)CCN(CCc2cccs2)CC1,inactive: 8.11%
2,CCC(=O)N(c1ccccc1)C1(COC)CCN(CCn2nnn(CC)c2=O)CC1,inactive: 8.04%
